# Binding of CDR-mutated scFvs to a peptide of the spike HR2 region

Values reported by Li et al. 2023, doi:10.1038/s41467-023-39022-2 (FLAb copy).

Antigen: PDVDLGDISGINAS, a 14-residue peptide of the SARS-CoV-2 spike HR2 region.

Parent: Ab-14, a human scFv built as VH, a 15-residue (Gly4Ser)3 linker, VL. Only the CDRs of the light chain vary.
VH: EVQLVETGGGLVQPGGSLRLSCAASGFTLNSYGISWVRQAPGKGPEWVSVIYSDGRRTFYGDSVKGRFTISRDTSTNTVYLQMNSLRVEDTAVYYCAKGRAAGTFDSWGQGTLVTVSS
VL: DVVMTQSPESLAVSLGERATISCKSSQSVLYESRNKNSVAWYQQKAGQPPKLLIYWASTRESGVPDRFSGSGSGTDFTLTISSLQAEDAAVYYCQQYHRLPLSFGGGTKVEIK

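The starting antibody came from a phage panning campaign against this peptide. These sequences belong to a second round, designed from the earlier measurements on random variants of the parent. Their group label is 14L_GP_Gibbs (GP: Gaussian process model; Gibbs: Gibbs sampling; a sequence that several methods proposed may carry one label only). The assay is AlphaSeq: two haploid yeast populations carry antibody and antigen on their surface. Binding brings cells together so that they mate, and sequencing counts the barcode pairs among the diploids. Scores were corrected for input abundance and mapped to Kd with protein pairs of known affinity run in the same pool. Mating was done six times.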

The parent's light chain CDRs are KSSQSVLYESRNKNSVA, WASTRES, QQYHRLPLS; each variant's own CDRs replace them letter for letter. Scale: log10 of Kd in nM, estimated from mating counts; low values are strong binders. A pair that was not seen in that replicate is written "nd"; this usually means weak binding, but a binder can also be missed.

KVSMSWMQLERNKNSVA, QASQREQ, QQYHRLPLS: -0.14, -0.22, -0.25, -0.25, -0.22, -0.06 (controls 0 of 18).
KLEQGDLMESRNKNSVA, HASMRES, QQYHRLPLS: 0.23, 0.31, -0.15, 0.24, 0.14, 0.35 (controls 0 of 18).
KIQQSELQESRNKNSVA, TASERES, QQYHRLPLS: 0.15, 0.16, -0.14, 0.03, 0.38, 0.46 (controls 1 of 18).
KMDQWVFYGDRWKNSVA, NASTREQ, QQYHRLPLS: 0.59, 0.59, 0.46, 0.25, 0.39, 0.59 (controls 1 of 18).
KMEQSDLLESRNVQSVA, QASTRES, QQYHRLPLS: 0.15, 0.20, 0.02, 0.27, 0.09, 0.56 (controls 1 of 18).
KLSQSDNYESRNHNSVA, HASTRCS, QQYHRLPLS: 0.86, 0.63, 0.39, 0.32, -0.02, 0.39 (controls 0 of 18).
KGMGSMLYESRNDNSVA, NASQRES, QQYHRLPLS: 0.51, 0.34, 0.44, 0.35, 0.37, 0.46 (controls 1 of 18).
KVSMQVLYSSRNKNSVA, DANTRES, QQYHRLPLS: -0.38, -0.43, -0.27, -0.22, -0.41, -0.30 (controls 1 of 18).
KLDQWQLGESRNKNSVA, SASTRCS, QQYHRLPLS: 0.13, 0.40, -0.14, -0.10, 0.09, 0.26 (controls 1 of 18).
KISGSYLYESRNWNAVA, EASQREQ, QQYHRLPLS: 0.26, 0.18, 0.17, 0.03, 0.04, 0.47 (controls 0 of 18).
KVSQGMWYEDRMKNSVA, NASQREQ, QQYHRLPLQ: 0.26, 0.41, 0.14, 0.14, 0.29, 0.37 (controls 1 of 18).
KLQQSNLYESRNTNSVA, NASQREQ, QQYHRLPLS: 0.05, -0.11, -0.25, -0.38, -0.10, 0.16 (controls 1 of 18).
KISGSYLGESRNWNSVA, EASQREQ, QQYHRLPLS: 0.24, 0.64, 0.27, 0.35, 0.20, 0.86 (controls 0 of 18).
KLEWSDLLESRNKQSVA, QASQRMS, QQYHRLPLS: -0.43, -0.14, -0.48, -0.26, -0.50, -0.17 (controls 1 of 18).
KLSMMVDYGDRNKNSVA, HASTRES, QQYHRLPLS: 0.10, -0.02, -0.07, -0.30, -0.16, 0.00 (controls 3 of 18).
KLQFAELQESRNKNSVA, SASTRES, QQYHRLPLS: 0.28, 0.32, 0.21, 0.36, 0.19, 0.65 (controls 0 of 18).
KLSQSDLYEDRNLNNVA, NASQRES, QVYHRLPLS: -0.21, -0.17, -0.43, -0.31, -0.30, -0.10 (controls 1 of 18).
KYSFSELYESRNQNSVA, EASQREE, QQYHRLPLS: 0.42, 0.12, -0.21, -0.19, 0.58, -0.07 (controls 0 of 18).
KWSQSVLGEERNKMSVA, NASQREE, QQYHRLPLS: 0.69, 0.69, 0.52, 0.56, 0.39, 0.42 (controls 0 of 18).
KVPGSNLYESRNKNSVA, HASTRCS, QDYHRLPLS: 0.21, 0.21, 0.06, 0.12, 0.11, 0.17 (controls 2 of 18).
KLSQSNDYEDRNANNVA, NASQRES, QEYHRLPLS: 1.52, 1.39, 0.46, 0.77, 1.21, 0.64 (controls 0 of 18).
KVEQLVLPEDRNANSVA, NASTRED, QQYHRLPLS: 0.67, 0.91, 0.76, 0.59, 0.86, 1.09 (controls 1 of 18).
KLMYSVPGESRNKNSVA, DASTRSS, QQYHRLPLS: 0.51, 0.21, 0.16, 0.49, 0.23, 0.38 (controls 2 of 18).
KLQQSWMQQWRNKNSVA, HASTRLS, QQYHRLPLS: 1.72, 1.72, 1.62, 2.04, 1.36, 2.27 (controls 1 of 18).
LVSQQELYEQRNKNSVA, SASQRLS, QQYHRLPLS: 0.45, 0.21, 0.73, 0.33, 0.85, 0.65 (controls 0 of 18).
VLEQSQLYESRNKNSVA, NASQRER, QQYHRLPLS: 0.06, -0.04, -0.12, -0.02, -0.21, 0.15 (controls 2 of 18).
KYSQLVLEESRNKNSVA, NASTREE, QQYHRLPLS: 0.21, 0.47, -0.24, 0.54, 0.80, 0.24 (controls 0 of 18).
ASSPSVMGEERNSNSVA, AASTREV, QQYHRLPLS: 0.17, -0.10, 0.11, -0.01, -0.20, 0.13 (controls 0 of 18).
KFEQQWLYSSRNVNSVA, NASTRSQ, QQYHRLPLS: 0.47, 0.07, 0.03, -0.32, -0.14, 0.05 (controls 2 of 18).
KLSQSMLYESRNKNSVA, EASDRLS, QDYHRLPLS: 0.66, 0.37, 0.43, 0.53, 0.23, 0.60 (controls 0 of 18).
KFFQSELDDMRNDNSVA, SASTRLS, QQYHRLPLS: 0.71, 0.74, 0.32, 0.34, 0.64, 0.45 (controls 1 of 18).
KLHQSDGYESRNKNSVA, NASTRSH, QQYHRLPLS: -0.03, -0.28, -0.25, -0.26, -0.04, 0.14 (controls 0 of 18).
KLQFSCLYESRDKNSVA, DASYRLS, QQYHRLPLS: 1.16, 0.89, 0.91, 1.45, 0.85, 1.61 (controls 1 of 18).
KLQQSELYGERNSNSVA, HASLRES, QQYHRLPLS: 0.28, 0.76, 0.14, 0.55, 0.34, -0.07 (controls 0 of 18).
KISGSHLYESRNWNAVA, EASTRPS, QQYHRLPLS: 0.18, 0.11, -0.07, -0.02, -0.01, 0.15 (controls 1 of 18).
KIIQSGLYESRNKNSVA, NASTRSP, QQYHRLPLS: -0.04, 0.11, -0.15, -0.30, 0.05, 0.05 (controls 3 of 18).
KFSQLWLYESRNKNSVA, NASTRES, QQYRRLPLS: 0.01, -0.81, -0.31, -1.05, -0.12, -0.93 (controls 0 of 18).
KLSPEVQYESRNKNSVA, GASERES, QQYHRLPLS: 0.01, -0.37, -0.18, -0.39, -0.23, -0.17 (controls 0 of 18).
KLQQSVEYESRLANSVA, NASTRLE, QQYHRLPLS: 0.32, 0.39, 0.17, 0.23, 0.21, 0.46 (controls 2 of 18).
KLDPSDLGESRNKNAVA, QASQREI, QQYHRLPLS: -0.16, -0.34, -0.32, -0.41, -0.37, -0.12 (controls 2 of 18).
KVSQGELYESRDANNVA, NASTREN, QQYHRLPLS: 1.11, 0.72, 1.02, 0.73, 0.91, 1.19 (controls 4 of 18).
KISQEVWYESRNKNSVA, EASLRES, QQYHRLPLS: 0.07, -0.13, -0.09, -0.32, -0.22, -0.08 (controls 0 of 18).
KIYQSGLYESRNKNSVA, SASTRES, QQYFRLPLS: nd, 3.39, 1.22, 1.93, 1.16, 2.06 (controls 0 of 18).
KLSQSYEYESRNKNSVA, NASQREH, QQYHRLPLS: -0.43, -0.44, -0.39, -0.48, -0.14, -0.27 (controls 0 of 18).
KVDQEVDGQSRNKNSVA, DASQREW, QQYHRLPLS: 0.09, 0.02, -0.12, -0.23, -0.08, 0.14 (controls 2 of 18).
KLSQSYCYGDRNKNSVA, QASTREQ, QQYHRLPLS: -0.19, -0.31, -0.05, -0.26, -0.35, -0.22 (controls 1 of 18).
KFQWSNLYESRNKNSVA, NASTRMS, QQYWRLPLS: 0.08, 0.18, 0.07, 0.03, 0.20, 0.15 (controls 2 of 18).
KSAYSEGYESRNKNSVA, SASTRSS, QQYHRLPLS: 0.79, 0.85, 0.88, 0.52, 1.20, 0.79 (controls 0 of 18).
KLSQSDEYESRQFNSVA, NASTRMQ, QQYHRLPLS: 0.67, 0.39, 0.27, 0.43, 0.35, 0.45 (controls 2 of 18).
KFDQEVWYESRNKNSVA, MASQRCS, QQYHRLPLS: 0.24, 0.79, 1.18, 0.84, 0.49, 0.43 (controls 0 of 18).

For reference, 7 entries of the list once more:

With KWSQSVLGEERNKMSVA, NASQREE, QQYHRLPLS the result was 0.69, 0.69, 0.52, 0.56, 0.39, 0.42 (controls 0 of 18).
With KVSQGELYESRDANNVA, NASTREN, QQYHRLPLS the result was 1.11, 0.72, 1.02, 0.73, 0.91, 1.19 (controls 4 of 18).
With KVSQGMWYEDRMKNSVA, NASQREQ, QQYHRLPLQ the result was 0.26, 0.41, 0.14, 0.14, 0.29, 0.37 (controls 1 of 18).
With KSAYSEGYESRNKNSVA, SASTRSS, QQYHRLPLS the result was 0.79, 0.85, 0.88, 0.52, 1.20, 0.79 (controls 0 of 18).
With KYSFSELYESRNQNSVA, EASQREE, QQYHRLPLS the result was 0.42, 0.12, -0.21, -0.19, 0.58, -0.07 (controls 0 of 18).
With KLSQSYEYESRNKNSVA, NASQREH, QQYHRLPLS the result was -0.43, -0.44, -0.39, -0.48, -0.14, -0.27 (controls 0 of 18).
With KLSQSDNYESRNHNSVA, HASTRCS, QQYHRLPLS the result was 0.86, 0.63, 0.39, 0.32, -0.02, 0.39 (controls 0 of 18).

Of ten entries with the parent sequence, four were seen in most replicates (averages 0.34 to 2.37), three in one and three in none, so single entries are noisy. The authors averaged sequences with at least three values out of six and counted those with two or fewer as poor binders. The range of this assay differs from that of the first round, and the authors advise against merging the two. Background: pairings of all light chain designs with three empty control strains gave a value in 4% of cases (median 2.64, 5th percentile 1.59). Values in that range, when seen in few replicates, are hard to tell from nonspecific mating. Also given: how often the same scFv was detected with the empty control strains.